Earlier results, collected in PMC11316633 (European journal of medicinal chemistry, 2024).

Target: CDK7/Cyclin H/MAT1
Conditions: CDK7, covalent inhibitor; cited from earlier work

## C=CC(=O)Nc1ccc(C(=O)Nc2n[nH]c3c2CN(C(=O)N[C@@H](CN(C)C)c2ccccc2)C3(C)C)cc1 [YKL-5–124]
  Kinact/ki: 103 nM^−1μS^−1
